This assay concerns the target recombinant human CCR5 receptor (Homo sapiens, UniProt P51681). Put plainly: in vitro radioligand binding assay: inhibition of binding of iodinated MIP-1α to membranes of CHO cells expressing CCR5 (scintillation proximity). The conditions noted are these: displacement of 0.1 nM iodinated MIP-1α; negative log (base 10) of IC50; average if tested more than once. The protocol: The ability of compounds to inhibit the binding of MIP-1α was assessed by an in vitro radioligand binding assay. Membranes were prepared from Chinese hamster ovary cells which expressed the recombinant human CCR5 receptor. These membranes were incubated with 0.1 nM iodinated MIP-1α, scintillation proximity beads and various concentrations of the compounds of the invention in 96-well plates. The amount of iodinated MIP-1α bound to the receptor was determined by scintillation counting. Competition curves were obtained for compounds and the concentration of compound which displaced 50% of bound iodinated MIP-1α was calculated (IC50).
In Table IV the results are presented as Pic50 values. A Pic50 value is the negative log (to base 10) of the IC50 result, so an IC50 of 1 μM (that is 1×10^−6M) gives a Pic50 of 6. If a compound was tested more than once then the data below is an average of the probative tests results.
(In general: Scintillation proximity formats need no separation of bound from free tracer.)

The chains behind the UniProt entries cited, without tags or fusion partners.
UniProt P51681, whole entry: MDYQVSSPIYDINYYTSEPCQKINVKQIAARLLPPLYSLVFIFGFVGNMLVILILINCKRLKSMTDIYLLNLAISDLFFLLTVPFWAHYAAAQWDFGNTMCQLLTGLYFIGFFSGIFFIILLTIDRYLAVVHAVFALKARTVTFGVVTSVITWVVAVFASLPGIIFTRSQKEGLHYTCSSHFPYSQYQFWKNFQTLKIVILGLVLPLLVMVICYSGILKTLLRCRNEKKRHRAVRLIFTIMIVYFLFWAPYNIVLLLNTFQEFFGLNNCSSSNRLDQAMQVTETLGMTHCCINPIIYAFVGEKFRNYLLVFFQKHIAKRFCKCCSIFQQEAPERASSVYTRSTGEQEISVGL

For `CS(=O)(=O)c1ccc([C@@H](CCN2CCC(CCS(=O)(=O)N3CCOCC3)CC2)c2cc(F)cc(F)c2)cc1`, the Pic50 worked out at 8.0.

As for `CN1CCN(S(=O)(=O)CCC2CCN(CC[C@H](c3ccc(S(C)(=O)=O)cc3)c3cc(F)cc(F)c3)CC2)CC1`, the Pic50 was 8.6.

Regarding `CCS(=O)(=O)N1CCN(S(=O)(=O)CCC2CCN(CC[C@H](c3ccc(S(C)(=O)=O)cc3)c3cc(F)cc(F)c3)CC2)CC1`, the Pic50 was determined as 9.2.

Take `CS(=O)(=O)c1ccc([C@@H](CCN2CCC(CCS(=O)(=O)N3CCC(F)CC3)CC2)c2cc(F)cc(F)c2)cc1`: the Pic50 came to 8.9.

In the case of `CS(=O)(=O)c1ccc([C@@H](CCN2CCC(CCS(=O)(=O)N3CCCC3)CC2)c2cc(F)cc(F)c2)cc1`, the Pic50 came out at 8.3.
